Reference: publication PMC3601784 (Chromatographia, 2012)

Protein sequences, listed by entry. Tags and fused reporters are not part of them.
UniProt P34913, whole entry: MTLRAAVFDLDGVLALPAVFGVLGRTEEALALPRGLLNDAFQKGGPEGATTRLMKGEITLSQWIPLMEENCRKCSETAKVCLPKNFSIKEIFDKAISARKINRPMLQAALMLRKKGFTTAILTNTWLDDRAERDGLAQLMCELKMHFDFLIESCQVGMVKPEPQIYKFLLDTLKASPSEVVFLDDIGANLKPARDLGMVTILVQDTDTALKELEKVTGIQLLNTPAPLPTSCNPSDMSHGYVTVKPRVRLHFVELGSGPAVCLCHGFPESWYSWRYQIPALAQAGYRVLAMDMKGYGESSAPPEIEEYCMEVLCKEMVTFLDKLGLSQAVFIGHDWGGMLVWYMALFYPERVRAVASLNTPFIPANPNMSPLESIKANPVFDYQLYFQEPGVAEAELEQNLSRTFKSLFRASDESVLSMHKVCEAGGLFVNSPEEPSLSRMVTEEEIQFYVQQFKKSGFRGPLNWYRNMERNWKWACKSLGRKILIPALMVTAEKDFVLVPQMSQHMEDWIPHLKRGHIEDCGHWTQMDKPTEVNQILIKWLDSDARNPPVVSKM

Target: Human recombinant sEH (Homo sapiens, UniProt P34913)
Assay: LC-BCD/MS
Assay type: biochemical
Details: mixture of sEHi 6, sEHi 1, sEHi 7, diclofenac and phenylbutazone separated by LC

- sEH activity (BCD peak) in a standard mixture: without sEH activity
SMILES: O=C(O)Cc1ccccc1Nc1c(Cl)cccc1Cl [diclofenac]
